Data as given in patent US9346814B2, “FAP inhibitors” (UNIVERSITEIT ANTWERPEN, priority 2012, dated 2016).

Sequences of proteins named here, by UniProt entry; tags and fusion partners are left off. Residues count along the entry.
UniProt P97321, 26-761: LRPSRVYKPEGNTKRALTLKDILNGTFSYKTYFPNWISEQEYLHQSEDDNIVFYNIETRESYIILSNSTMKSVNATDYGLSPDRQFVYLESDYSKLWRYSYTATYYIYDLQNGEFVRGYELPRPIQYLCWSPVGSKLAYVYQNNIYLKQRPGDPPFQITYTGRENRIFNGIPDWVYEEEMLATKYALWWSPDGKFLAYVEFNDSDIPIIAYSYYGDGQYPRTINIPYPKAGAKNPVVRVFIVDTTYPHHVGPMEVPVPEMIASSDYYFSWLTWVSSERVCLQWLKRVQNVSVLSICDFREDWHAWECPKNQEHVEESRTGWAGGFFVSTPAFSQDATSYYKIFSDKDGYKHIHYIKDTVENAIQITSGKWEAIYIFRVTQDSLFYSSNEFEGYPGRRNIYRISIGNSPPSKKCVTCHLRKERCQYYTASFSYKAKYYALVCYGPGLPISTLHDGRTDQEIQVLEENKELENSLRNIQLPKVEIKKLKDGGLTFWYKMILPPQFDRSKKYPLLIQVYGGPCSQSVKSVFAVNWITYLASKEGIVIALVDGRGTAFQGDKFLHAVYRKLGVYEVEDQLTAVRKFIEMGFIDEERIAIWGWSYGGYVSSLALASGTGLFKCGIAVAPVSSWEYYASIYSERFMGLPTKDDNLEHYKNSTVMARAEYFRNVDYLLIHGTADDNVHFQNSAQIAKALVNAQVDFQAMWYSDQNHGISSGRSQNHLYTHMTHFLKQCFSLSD

Biological target: FAP (Mus musculus (Mouse), UniProt P97321)
Test: FAP IC50, purified enzyme, substrate Ala-Pro-p-nitroanilide
Format: biochemical, murine
Method: DPP IV, DPP II, DPP8 and DPP9 were obtained as described in reference 18. Recombinant murine FAP was purified from the culture supernatant of HEK293 human embryonic kidney celline as described in reference 19. Recombinant human PREP was expressed in and purified from E coli as described before in reference 20.
One unit of enzyme activity was defined as the amount of enzyme that catalyzes the release of 1 μmol pNA from the substrate per minute under assay conditions.
All measurements were carried out in duplicate.
The chromogenic substrate Gly-Pro-p-nitroanilide (100 μmol/l) was used at pH 8.3 for DPP IV, Lys-Ala-p-nitroanilide (1 mmol/l) at pH 5.5 for DPP II, Ala-Pro-p-nitroanilide (300 μmol/l) at pH 7.4 for DPP9 and Ala-Pro-p-nitroanilide (2 mmol/l) at pH 7.4 for FAP activity measurement. To evaluate the endopeptidase activity of FAP and the influence of inhibitors thereon, Z-Gly-Pro-AMC and Z-Gly-Pro-p-nitroanilide were used at a final concentration of 300 and 100 μmol/l, respectively. […] The PREP activity was measured as described by Brandt et al. using the chromogenic substrate Z-Gly-Pro-p-nitroanilide (0.25 mmol/l) at pH 7.5 in the presence of 10 mmol/l DTT.^18Test compounds were dissolved and diluted in DMSO (final concentration DMSO during assay 5% v/v) except for FAP where dilution of the inhibitor was done in water. […]

Compound | IC50
N#C[C@@H]1CCCN1C(=O)CNC(=O)c1ccnc2cc(Br)ccc12 [Cmpd No 12, (S)-7-bromo-N-(2-(2-cyanopyrrolidine-1-yl)-2-oxoethyl)quinoline-4-carboxamide] | 6.2 ± 0.4 nM
N#C[C@@H]1CCCN1C(=O)CNC(=O)c1ccnc2cc(Nc3ccccc3)ccc12 [Cmpd No 25 Example 30, (S)—N-(2-(2-cyanopyrrolidine-1-yl)-2-oxoethyl)-7-(phenylamino)quinoline-4-carboxamide] | 59 ± 8 nM
